Target: Calcium/calmodulin-dependent protein kinase type II subunit delta (Mus musculus) (UniProt Q6PHZ2)
Assay: anti-HA co-IP from muscle, MS; CTRL 0

Chains of the proteins cited; added tags and fusions are not shown. Residues count along the entry.
UniProt Q6PHZ2, 2-499 limits assumed, stated change not applied: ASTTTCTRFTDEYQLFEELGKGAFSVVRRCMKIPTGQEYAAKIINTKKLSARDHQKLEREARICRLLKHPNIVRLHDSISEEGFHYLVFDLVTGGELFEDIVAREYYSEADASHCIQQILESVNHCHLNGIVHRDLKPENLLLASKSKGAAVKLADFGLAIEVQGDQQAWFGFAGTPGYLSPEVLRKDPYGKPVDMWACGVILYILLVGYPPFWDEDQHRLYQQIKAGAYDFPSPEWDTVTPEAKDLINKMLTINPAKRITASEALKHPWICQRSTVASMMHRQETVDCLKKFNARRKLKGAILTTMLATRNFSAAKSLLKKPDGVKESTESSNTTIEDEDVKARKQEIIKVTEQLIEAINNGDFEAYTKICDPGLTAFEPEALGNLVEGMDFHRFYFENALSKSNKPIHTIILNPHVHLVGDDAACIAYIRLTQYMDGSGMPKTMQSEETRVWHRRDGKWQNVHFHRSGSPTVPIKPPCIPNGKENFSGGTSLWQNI

- AAV9-BVES-HA (IP-MS count): 7
Substance: human BVES fused with 3xHA tag (from UniProt Q8NE79 1-360)
